Data set [1] has as its system Aβ phosphorylated at Ser(8). Kind of data set: PTM-Aβ microarray, pSer8. Type of data set: binding, human. Particulars: optimized antibody concentrations (Aducanumabbs 0.02μg/mL; 1E4E11 0.25μg/mL), vs unphosphorylated. The text has this:
Specific PTMs might be associated with different stages of AD progression and severity, offering potential biomarkers for diagnosis and prognosis. Targeting PTMs represents a potential therapeutic strategy to prevent Aβ aggregation and neurotoxicity, thereby slowing disease progression. […] Therefore, a selected group of PTM-carrying Aβ peptides (PTM-Aβ) were incorporated into the Aβ chip to explore the potential binding preference of selected Aβ-Abs, under optimized concentrations (Figure 3). The antibodies were tested with both PTM-Aβ and the corresponding unmodified variants to provide a head-to-head comparison. This screening was performed in the presence of Aβ phosphorylated at positions Ser(8) or Ser(26), N-terminal pE at position 3, racemization/isomerization of Asp at position 1, and unmodified N-terminal variants. The dataset is divided into sections (Figure 3 a–f) for enhanced visualization, where each antibody was screened simultaneously against all peptides to locate their epitope preferences. […] A set of antibodies without reported PTM preference was applied here as controls (refer to Table 1), namely 11H3, 101–1-1, IC16, 82E1 and 3D6.
Figure 3. […] Blue and red shades indicate the binding strength over the related arrayed […] modified peptide shown on top and cognate anti-Aβ antibody to the left. […]

Data set [2] has as its system Alzheimer's disease patients. Particulars: cited from earlier work. The source says:
Despite extensive structural, genetic, and pre-clinical investigations, clinical trials of Aβ antibodies have yielded ambiguous outcomes. Aβ antibody binding to cerebral amyloid angiopathy (CAA) has been hypothesized to correlate with the frequency of amyloid-related imaging abnormalities with edema (ARIA-E) observed in patients treated with Aβ-based immunotherapies.

As for “Aducanumab: recombinant human antibody, Neurimmune AG/Biogen”, the “preference for pSer8 Aβ” value in data set [1] is listed as “preference of Aducanumab for Ser8-phosphorylated Aβ for non-aggregated forms”. The “clinical outcome, EMERGE (Phase 3)” value in data set [2] (Clinical Dementia Rating Sum of Boxes, high dose vs. placebo, ref [43]) was “statistically significantly slower decline”. The ARIA-E frequency in data set [2] (cross-study comparison, ref [38]) is 25–35%. The “clinical outcome, ENGAGE (Phase 3)” value in data set [2] (primary endpoints, ref [43]) is on record as “failed to meet its primary endpoints”.

These data come from doi:10.1101/2025.02.26.640323, “Aggregation-Dependent Epitope Sequence and Modification Fingerprints of Anti-Aβ Antibodies” (bioRxiv, 2025).
